# Source: patent US20250074908A1, “SALT OF ROCK INHIBITOR, CRYSTAL FORM OF SALT, COMPOSITION, AND PHARMACEUTICAL USE” (WUHAN CREATERNA SCIENCE AND TECHNOLOGY CO., LTD., priority 2022, published 2025)
# Key:
# [1] = Solubility in biologically relevant media at 37° C. (free base crystal form I, crystal form III of maleate); type: physicochemical
# Description: (§1) A) The HPLC method used for the solubility test was as follows:
# 15 mg of each sample was weighed and dispersed in 3.0 mL of biologically relevant medium. The dispersion was shaken on a shaker at a rotation speed of 800 rpm at 37° C. 1 mL of the dispersion was taken at 0.5 h, 2 h, and 24 h, and filtered. The filtrate was tested for solubility by Agilent HPLC 1260 series and for pH value by a pH meter. The filter cake was characterized for the crystal form by XRPD.
# [2] = Solubility in biological media and purified water at 37° C. (tartrate, ethanesulfonate, 2-hydroxyethanesulfonate, sulfate); type: physicochemical; conditions: for solubility in SGF: level over the 24 h test; for solubility in SGF / XRPD spectra in the three biological media: SGF; for solubility in FaSSIF within 24 h / XRPD spectra in the three biological media: FaSSIF; for XRPD spectra in the three biological media: after solubility test; for pH of solutions in the solubility test: three biological media
# Description: as §1
# 4 parallel samples of each of the crystal form I of tartrate, the crystal form I of ethanesulfonate, and the crystal form I of 2-hydroxyethanesulfonate (with about 5 mg per sample) were weighed and each placed into a 10 mL centrifuge tube, and then 5 mL of the corresponding biological medium solution was added to each tube; the tubes were capped, and the samples were suspended homogeneously. 10 parallel samples of the crystal form I of sulfate (with 1 mg per sample) were weighed and placed in centrifuge tubes, then 2 mL of the corresponding biological medium solution was added to each tube, and the samples were suspended homogeneously. The centrifuge tubes were shaken on a constant temperature incubator shaker (at a temperature of 37° C., with a shaking frequency of 100 times/min).
"Solubility 1 h ([2]; FaSSIF (pH 6.5), 37° C.) [µg/mL]","Solubility 2 h ([2]; FaSSIF (pH 6.5), 37° C.) [µg/mL]","Solubility 4 h ([2]; FaSSIF (pH 6.5), 37° C.) [µg/mL]","Solubility 24 h ([2]; FaSSIF (pH 6.5), 37° C.) [µg/mL]",solubility in FaSSIF within 24 h ([2]; 37° C.) [µg/mL],"Solubility 1 h ([2]; FeSSIF (pH 5.0), 37° C.) [µg/mL]","Solubility 2 h ([2]; FeSSIF (pH 5.0), 37° C.) [µg/mL]","Solubility 4 h ([2]; FeSSIF (pH 5.0), 37° C.) [µg/mL]","Solubility 24 h ([2]; FeSSIF (pH 5.0), 37° C.) [µg/mL]","Solubility 1 h ([2]; SGF (pH 1.2), 37° C.) [µg/mL]","Solubility 2 h ([2]; SGF (pH 1.2), 37° C.) [µg/mL]","Solubility 4 h ([2]; SGF (pH 1.2), 37° C.) [µg/mL]","Solubility 24 h ([2]; SGF (pH 1.2), 37° C.) [µg/mL]",solubility in SGF ([2]; 37° C.),XRPD (24 h) ([2]; after 24 h in Purified water),pH of solutions in the solubility test [2],Compound,XRPD spectra in the three biological media ([2]; FeSSIF),further results
–,–,–,–,–,–,–,–,–,–,–,–,–,–,–,–,Cn1c(C(=O)N2CC(F)(F)C2)cc2c1CN(c1ncc(F)c(Nc3ccc(-c4cn[nH]c4)cc3)n1)CC2 [Free base crystal form I],–,"solubility at 2 h ([1]; thermodynamic from solid, FaSSIF, 2 h): 0.76 µg/mL; solubility at 0.5 h ([1]; thermodynamic from solid, FeSSIF, 0.5 h): 0.4 µg/mL"
2,1,2,1,1 to 2,26,21,19,16,46,50,50,51,around 50 μg/mL,Remained unchanged,did not change significantly,Cn1c(C(=O)N2CC(F)(F)C2)cc2c1CN(c1ncc(F)c(Nc3ccc(-c4cn[nH]c4)cc3)n1)CC2.O=C(O)C(O)C(O)C(=O)O [Crystal form I of tartrate],"all changed, with a certain degree of decrease in crystallinity observed","solubility in FeSSIF over a period of 0-24 h ([2]; FeSSIF, 37° C., 0-24 h): 16 to 26 µg/mL"
3,3,3,2,2 to 3,85,76,61,12,101,101,97,72,–,Remained unchanged,did not change significantly,CCS(=O)(=O)O.Cn1c(C(=O)N2CC(F)(F)C2)cc2c1CN(c1ncc(F)c(Nc3ccc(-c4cn[nH]c4)cc3)n1)CC2 [Crystal form I of ethanesulfonate],"all changed, with a certain degree of decrease in crystallinity observed",XRPD (24 h) ([2]; after 24 h in FeSSIF (pH 5.0)): became almost amorphous
–,–,–,–,–,–,–,–,–,–,–,–,–,–,–,–,Cn1c(C(=O)N2CC(F)(F)C2)cc2c1CN(c1ncc(F)c(Nc3ccc(-c4cn[nH]c4)cc3)n1)CC2.O=C(O)/C=C\C(=O)O [Crystal form III of maleate],–,"Solubility 2 h ([1]; FaSSIF, 2 h): 0.16 µg/mL; Solubility 0.5 h ([1]; SGF, 0.5 h): 24.00 µg/mL"
4,5,3,3,3 to 5,85,76,62,28,55,56,56,57,around 56 μg/mL,Remained unchanged,did not change significantly,Cn1c(C(=O)N2CC(F)(F)C2)cc2c1CN(c1ncc(F)c(Nc3ccc(-c4cn[nH]c4)cc3)n1)CC2.O=S(=O)(O)CCO,"all changed, with a certain degree of decrease in crystallinity observed",–
